Test system: CHO cells
Conditions: cells of FIG. 10A, untreated or various concentrations of nimesulide

CS(=O)(=O)Nc1ccc([N+](=O)[O-])cc1Oc1ccccc1 [nimesulide, 4-nitro-2-phenoxymethanesulfonanilide]
cell viability (MTT assay): equal viability
